From patent US20070009965A1, “Novel method for screening for GPCR agonists and/or antagonists from herbs” (Advanced Gene Technology, Corp., priority 2004, published 2007)

Chains of the proteins cited; added tags and fusions are not shown.
UniProt P32245, whole entry, species assumed: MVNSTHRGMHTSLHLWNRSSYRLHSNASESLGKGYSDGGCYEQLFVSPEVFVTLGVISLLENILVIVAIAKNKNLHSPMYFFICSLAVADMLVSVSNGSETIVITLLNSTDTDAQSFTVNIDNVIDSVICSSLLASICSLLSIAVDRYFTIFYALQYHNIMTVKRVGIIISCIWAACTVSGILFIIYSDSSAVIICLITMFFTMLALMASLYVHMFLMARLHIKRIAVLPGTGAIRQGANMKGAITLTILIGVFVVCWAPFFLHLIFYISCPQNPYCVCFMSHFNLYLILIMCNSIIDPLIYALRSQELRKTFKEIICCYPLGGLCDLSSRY

Biological target: MC4R (Homo sapiens, UniProt P32245)
Assay: herbal chip hybridization with MC4R and Cy3-anti-MC4R, fluorescence imaging
Format: binding
Conditions: at least 25 ng/ml NDP-MSH spotted on coated slide; at least 25 μg/ml MC4R; at least 5 μg/ml Cy3-anti-MC4R; laser scanner
Procedure: A coated plastic slide (1) having active epoxy groups on its surface was prepared in accordance with the method disclosed in the Paragraph entitled “Pretreatment of the Plastic Slide and Preparation of the Coated Plastic Slide” under the Example section of U.S. Pat. No. 6,645,719 B2.
In accordance with the teaching of the Paragraph entitled “Loading Samples onto the Coated Plastic Slide in Microarray Format” under the Example section of U.S. Pat. No. 6,645,719 B2, at least 25 ng/ml of α-melanocyte stimulating hormone (NDP-MSH, NH2-Ser-Thr-Ser-Nle-Glu-His-D-Phe-Arg-Trp-Gly-Lys-Pro-Val-OH), that can bind to melanocortin receptors (MCXR), i.e. representatives of GPCRs, were spotted onto the coated plastic slide (1) by Microarrayer BioGrid I (BioRobotic, Cambridge, UK), and then the resultant slide (2) was washed with a blocking buffer (0.1 M sodium borate and 0.1 M ethanolamine) for removing unbound proteins.
In a dark room, under room temperature, at least 25 μg/ml of MC3R, MC4R and MC5R were individually added to the slides (2), and the resultant slides (3) were allowed to stand for 1 hour for completing hybridization. The slides (3) were washed with 1× TBST buffer (50 mM Tris, pH 7.3, 0.15 M NaCl and 0.02% Tween 20) and Milli-Q water, and then dried in an incubator at 37° C. […]

Mean of Fluorescence Intensity (M): 58.50
Substance: NH2-Ser-Thr-Ser-Nle-Glu-His-D-Phe-Arg-Trp-Gly-Lys-Pro-Val-OH [NDP-MSH]
